Molecular target: Neuronal acetylcholine receptor subunit alpha-7 (Homo sapiens, UniProt P36544)
Test: Binding affinity to nACh alpha7 receptor (unknown origin) assessed as inhibition constant

By UniProt entry, the sequences of proteins in these tests, tags left out.
UniProt P36544, whole entry: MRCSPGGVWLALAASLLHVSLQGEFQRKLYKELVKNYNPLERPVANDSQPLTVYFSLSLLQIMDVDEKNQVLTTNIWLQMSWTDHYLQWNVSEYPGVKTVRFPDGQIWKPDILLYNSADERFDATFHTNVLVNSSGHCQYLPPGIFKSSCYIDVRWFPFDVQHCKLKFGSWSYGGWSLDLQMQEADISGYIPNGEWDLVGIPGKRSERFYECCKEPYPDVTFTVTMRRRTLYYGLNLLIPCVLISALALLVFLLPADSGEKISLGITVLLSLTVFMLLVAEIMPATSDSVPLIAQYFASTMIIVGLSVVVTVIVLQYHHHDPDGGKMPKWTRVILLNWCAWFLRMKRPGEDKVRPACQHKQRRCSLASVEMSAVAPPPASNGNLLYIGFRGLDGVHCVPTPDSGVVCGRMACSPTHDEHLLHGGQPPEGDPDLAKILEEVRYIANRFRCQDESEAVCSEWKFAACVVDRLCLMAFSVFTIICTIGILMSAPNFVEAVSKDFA

## O=S1(=O)c2cc(N3CCN4CCC3CC4)ccc2-c2cccc([18F])c21
  Ki: 562 nM
